Yeast mating assay 1: variants of the scFv Ab-14

The target is the same throughout: PDVDLGDISGINAS, from the HR2 region of SARS-CoV-2 spike.

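Variants in AAYL50 differ from the parent at up to three CDR positions; double and triple changes were sampled at random. In AlphaSeq, yeast of one mating type display the scFv and yeast of the other type display the target. Binding brings cells together so that they mate, and sequencing counts the barcode pairs among the diploids. Read counts were normalised to the haploid input and turned into Kd by a linear fit to BCL2-family pairs of known affinity, for each replicate. There are three technical replicates.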

Parent: Ab-14, a human scFv built as VH, a 15-residue (Gly4Ser)3 linker, VL. Only the CDRs of the light chain vary.
VH: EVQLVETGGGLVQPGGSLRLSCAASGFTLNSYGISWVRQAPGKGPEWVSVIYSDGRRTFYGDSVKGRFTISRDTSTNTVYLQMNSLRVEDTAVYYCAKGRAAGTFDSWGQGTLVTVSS
VL: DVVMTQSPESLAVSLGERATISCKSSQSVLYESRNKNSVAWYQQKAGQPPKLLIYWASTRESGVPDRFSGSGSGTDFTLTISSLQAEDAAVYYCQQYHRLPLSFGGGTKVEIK

Each variant's VL is given in full.
Scale: log10 of Kd in nM, estimated from mating counts; low values are strong binders.
A pair that was not seen in that replicate is written "n.d."; this usually means weak binding, but a binder can also be missed.
Background: pairings of library AAYL50 with three empty control strains gave a value in 18% of cases (median 4.19, 5th percentile 2.99). Values in that range, when seen in few replicates, are hard to tell from nonspecific mating. The control count says in how many pairings with the empty strains this scFv gave a signal, with their mean in brackets.
In this assay the parent's reference entry averaged 0.65; its copy inside this library read 1.68.

VL	log10 Kd (nM) by replicate	control signals
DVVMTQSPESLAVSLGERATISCPSYQSVLYESRNKNSVAWYQQKAGQPPKLLIYWASTRESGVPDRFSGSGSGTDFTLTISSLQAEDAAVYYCQQYHRLPLSFGGGTKVEIK	n.d. n.d. n.d.	0/9
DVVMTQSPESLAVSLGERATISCKSSQSVLYESRNKNSVAWYQQKAGQPPKLLIYWASIRESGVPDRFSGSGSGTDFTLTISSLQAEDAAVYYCQQYHRLWHSFGGGTKVEIK	1.03 1.16 1.24	5/9 (4.77)
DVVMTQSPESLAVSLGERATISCKSSQSVLYEDRNMNSVAWYQQKAGQPPKLLIYWASTRESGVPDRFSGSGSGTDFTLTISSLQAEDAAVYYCQQYHRLPLDFGGGTKVEIK	1.82 1.70 n.d.	0/9
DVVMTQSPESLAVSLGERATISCKSSQWVLYESRNKNSVAWYQQKAGQPPKLLIYWASTEESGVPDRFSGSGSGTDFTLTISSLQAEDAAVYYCQQYHRLPLCFGGGTKVEIK	n.d. n.d. n.d.	0/9
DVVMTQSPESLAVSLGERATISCKSSQSVLYRSRNKNSVAWYQQKAGQPPKLLIYWASWRESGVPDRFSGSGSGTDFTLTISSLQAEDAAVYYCQQYHRLLLSFGGGTKVEIK	n.d. n.d. 3.27	0/9
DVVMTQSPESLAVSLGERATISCKSSQSVLYESRNKNSVAWYQQKAGQPPKLLIYWASTRESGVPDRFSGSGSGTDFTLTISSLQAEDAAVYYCQQYCCIPLSFGGGTKVEIK	3.43 n.d. 4.88	4/9 (4.45)
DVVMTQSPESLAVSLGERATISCPSSQSVLYESRNKNSVAWYQQKAGQPPKLLIYWASTHESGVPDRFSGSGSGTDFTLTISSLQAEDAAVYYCQQYHRLPLTFGGGTKVEIK	4.36 n.d. 4.14	3/9 (4.38)
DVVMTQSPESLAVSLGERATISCKSSCSVLYELRNKNSVAWYQQKAGQPPKLLIYWASTRVSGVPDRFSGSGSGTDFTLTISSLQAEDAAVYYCQQYHRLPLSFGGGTKVEIK	3.59 n.d. n.d.	1/9 (2.92)
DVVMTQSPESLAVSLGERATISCKSSQSVLYESRNGNSVAWYQQKAGQPPKLLIYWASTRLSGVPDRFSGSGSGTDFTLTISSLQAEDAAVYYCQQYHRGPLSFGGGTKVEIK	n.d. n.d. n.d.	1/9 (4.95)
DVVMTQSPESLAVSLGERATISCKSSQEVLYESRNKNSVAWYQQKAGQPPKLLIYRASTRESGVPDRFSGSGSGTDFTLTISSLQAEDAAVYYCQQYHRLPLMFGGGTKVEIK	0.51 0.85 0.89	3/9 (3.55)
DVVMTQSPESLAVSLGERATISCKKAQSVLYESRNKNNVAWYQQKAGQPPKLLIYWASTRESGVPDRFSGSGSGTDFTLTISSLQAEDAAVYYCQQYHRLPLSFGGGTKVEIK	0.09 0.43 0.17	0/9
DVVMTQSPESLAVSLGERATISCKSDQSVLYESRNKNSVAWYQQKAGQPPKLLIYWALTRESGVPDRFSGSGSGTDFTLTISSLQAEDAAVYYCQQYKRLPLSFGGGTKVEIK	n.d. n.d. n.d.	3/9 (3.74)
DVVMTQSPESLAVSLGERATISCKSSQSVKYESRNKNSVGWYQQKAGQPPKLLIYWASTRESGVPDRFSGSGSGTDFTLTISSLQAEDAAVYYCQQYHTLPLSFGGGTKVEIK	5.95 n.d. 3.57	3/9 (4.06)
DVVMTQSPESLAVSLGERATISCKSSQSMLYESRNKNSVAWYQQKAGQPPKLLIYWASTRESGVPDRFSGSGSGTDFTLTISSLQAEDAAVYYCSQAHRLPLSFGGGTKVEIK	2.96 2.40 2.52	2/9 (4.37)
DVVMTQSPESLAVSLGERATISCKSSQSVLYESRNKNSVAWYQQKAGQPPKLLIYWASTRESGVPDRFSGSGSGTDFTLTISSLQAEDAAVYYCQVRHVLPLSFGGGTKVEIK	1.33 1.62 1.73	1/9 (4.37)
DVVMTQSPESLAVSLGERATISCKSSQAVLYESRNKNSVDWYQQKAGQPPKLLIYWASTRESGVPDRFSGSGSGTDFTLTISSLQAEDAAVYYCQQYHRLPLYFGGGTKVEIK	n.d. n.d. n.d.	1/9 (3.40)
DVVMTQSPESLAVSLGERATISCKSSQSVLVESPNKNSVAWYQQKAGQPPKLLIYWASTRESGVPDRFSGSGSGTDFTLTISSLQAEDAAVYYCQKYHRLPLSFGGGTKVEIK	n.d. n.d. n.d.	1/9 (3.21)
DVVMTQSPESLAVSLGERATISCKSSQSVLYEIRNKNSVAWYQQKAGQPPKLLIYWASTRESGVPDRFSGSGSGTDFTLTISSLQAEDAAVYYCQQWHRLPLPFGGGTKVEIK	n.d. n.d. n.d.	0/9
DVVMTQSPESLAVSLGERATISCKSSQSVLYEMRNKNSVAWYQQKAGQPPKLLIYWASTRESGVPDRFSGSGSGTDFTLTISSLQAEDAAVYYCQTYRRLPLSFGGGTKVEIK	3.13 2.73 n.d.	2/9 (4.47)
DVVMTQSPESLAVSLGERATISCKSSQIVLYESRNKNSVAWYQQKAGQPPKLLIYWAQTRESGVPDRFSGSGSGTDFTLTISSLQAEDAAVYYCQQYARLPLSFGGGTKVEIK	1.75 2.02 1.82	3/9 (4.41)
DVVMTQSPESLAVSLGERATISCLSSQSVLYEVRNKNSVAWYQQKAGQPPKLLIYWASTAESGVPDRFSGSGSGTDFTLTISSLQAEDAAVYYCQQYHRLPLSFGGGTKVEIK	n.d. n.d. n.d.	0/9
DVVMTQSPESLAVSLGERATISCKSSQSVLYESRNKNSVAWYQQKAGQPPKLLIYWAPTRESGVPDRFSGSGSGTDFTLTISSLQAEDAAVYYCQQYHRLPNSFGGGTKVEIK	n.d. n.d. n.d.	0/9
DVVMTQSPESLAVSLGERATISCKSSQSSLYESRIKNSVAWYQQKAGQPPKLLIYWASTRESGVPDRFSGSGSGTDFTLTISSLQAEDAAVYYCQQFHRLPLSFGGGTKVEIK	2.42 2.14 2.77	1/9 (3.47)
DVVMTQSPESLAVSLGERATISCKSSQSVLHESRNKNSVAWYQQKAGQPPKLLIYWASNRESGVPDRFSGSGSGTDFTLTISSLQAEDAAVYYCQQYHRLPLSFGGGTKVEIK	n.d. n.d. n.d.	0/9
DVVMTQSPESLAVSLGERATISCKSSQSVLYERRNKNSVAWYQQKAGQPPKLLIYPVSTRESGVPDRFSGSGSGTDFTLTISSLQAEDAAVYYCQQYHRLPLSFGGGTKVEIK	n.d. 4.89 n.d.	0/9

The last 3 entries again:

VL,log10 Kd (nM) by replicate,control signals
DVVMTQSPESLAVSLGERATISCKSSQSSLYESRIKNSVAWYQQKAGQPPKLLIYWASTRESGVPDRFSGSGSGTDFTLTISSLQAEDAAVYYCQQFHRLPLSFGGGTKVEIK,2.42 2.14 2.77,1/9 (3.47)
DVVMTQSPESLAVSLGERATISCKSSQSVLHESRNKNSVAWYQQKAGQPPKLLIYWASNRESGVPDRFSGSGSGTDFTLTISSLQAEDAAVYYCQQYHRLPLSFGGGTKVEIK,n.d. n.d. n.d.,0/9
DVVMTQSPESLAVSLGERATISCKSSQSVLYERRNKNSVAWYQQKAGQPPKLLIYPVSTRESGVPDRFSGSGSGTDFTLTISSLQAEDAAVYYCQQYHRLPLSFGGGTKVEIK,n.d. 4.89 n.d.,0/9

Reference: Engelhart et al. 2022, doi:10.1038/s41597-022-01779-4. File: FLAb, binding data.